We go through one compound from US20160193216A1 (Nimbus Iris, Inc., priority 2012, published 2016).

Sequences of proteins named here, by UniProt entry; tags and fusion partners are left off.
UniProt Q9NWZ3, whole entry: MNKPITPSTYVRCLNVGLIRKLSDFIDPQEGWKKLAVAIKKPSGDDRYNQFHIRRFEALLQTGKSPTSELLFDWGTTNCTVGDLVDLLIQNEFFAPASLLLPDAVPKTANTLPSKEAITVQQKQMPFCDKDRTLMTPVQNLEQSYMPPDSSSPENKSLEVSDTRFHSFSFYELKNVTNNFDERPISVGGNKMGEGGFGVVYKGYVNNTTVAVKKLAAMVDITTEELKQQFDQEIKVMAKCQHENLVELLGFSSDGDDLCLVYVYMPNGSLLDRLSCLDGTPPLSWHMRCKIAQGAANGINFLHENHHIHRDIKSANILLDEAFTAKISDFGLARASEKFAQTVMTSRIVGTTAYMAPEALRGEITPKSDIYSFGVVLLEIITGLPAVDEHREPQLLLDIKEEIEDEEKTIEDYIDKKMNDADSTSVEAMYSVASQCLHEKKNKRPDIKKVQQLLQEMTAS

The experiment addresses IRAK4 (Homo sapiens, UniProt Q9NWZ3). In words: IRAK-4 activity inhibition assay (Caliper). It is filed as biochemical. As to conditions: read-out: IRAK-4 activity inhibition IC50; 37 μM ATP, 3.5 nM IRAK4.

For `CNC(=O)CNC(=O)C[C@H]1CCc2sc3ncnc(O[C@H]4CC[C@H](N(C)C)CC4)c3c21`, the half-maximal inhibitory concentration (IC50) was below 5 µM.
